According to PubChem BioAssay (Tox21):
Only a part is listed here, and it is no random draw. Inconclusive results are not listed. Calls of active or inactive are those of the source. Unless noted, calls come from the whole dose curve; as a rule, active = well fitted curve in the direction sought with a large enough effect in the repeat runs; inconclusive = weak or mixed curves; inactive = no such curve, though single readings can be large; an effect the other way counts as inactive or inconclusive.

Amino acid sequences for entries named in this document (tags omitted).
UniProt P11511, whole entry: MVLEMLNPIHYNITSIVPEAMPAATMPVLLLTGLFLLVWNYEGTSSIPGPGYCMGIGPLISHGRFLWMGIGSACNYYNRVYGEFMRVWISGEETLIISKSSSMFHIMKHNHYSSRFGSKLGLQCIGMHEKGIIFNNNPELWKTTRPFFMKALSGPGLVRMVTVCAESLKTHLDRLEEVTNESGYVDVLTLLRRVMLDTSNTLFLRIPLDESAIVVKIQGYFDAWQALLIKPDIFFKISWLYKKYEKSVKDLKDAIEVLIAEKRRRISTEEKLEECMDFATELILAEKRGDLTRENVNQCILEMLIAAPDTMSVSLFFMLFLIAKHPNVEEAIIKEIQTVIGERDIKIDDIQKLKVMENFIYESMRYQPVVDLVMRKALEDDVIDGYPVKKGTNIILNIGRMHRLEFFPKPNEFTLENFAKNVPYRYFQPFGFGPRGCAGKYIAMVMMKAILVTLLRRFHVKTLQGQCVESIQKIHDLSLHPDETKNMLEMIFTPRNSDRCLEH

Experiments:
[1] = qHTS assay for small molecule agonists of the p53 signaling pathway - cell viability (AID 651633; calls by dose curve; note: nearly all actives have a fitted effect of over 30% in size)
Summary of the method: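 p53RE-bla cells, seeded at 4,000 per well and rested 5 h at 37 C/5% CO2, received compounds in DMSO for 16 h at 37 C. CellTiter-Glo was then added, and luminescence was read after 30 min at room temperature to gauge cytotoxicity.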

[2] = qHTS assay for small molecules that induce genotoxicity in human embryonic kidney cells expressing luciferase-tagged ATAD5 - cell viability (AID 651634; calls by dose curve; note: nearly all actives have a fitted effect of over 25% in size); settings: HEK293T ATAD5-luc cells viability, CellTiter-Fluor, 15.5 h
Summary of the method: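 Seeding of 2,000 HEK293T ATAD5-luciferase cells per well preceded pin-tool compound transfer. Plates sat 15.5 hr at 37C under 5% CO2, then fluorescence was read after 30 min with CellTiter-Fluor.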

[3] = qHTS assay for small molecule disruptors of the mitochondrial membrane potential - cell viability (AID 720634; calls by dose curve; note: nearly all actives have a fitted effect of over 20% in size); settings: HepG2 viability, ATP luminescence (CellTiter-Glo), 1 h
Summary of the method: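 Measuring cytotoxicity alongside mitochondrial potential, the screen quantified ATP by luminescence in HepG2 cells after 1 hr compound incubation and a 30 min room-temperature CellTiter-Glo step.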

[4] = qHTS assay for small molecule disruptors of the mitochondrial membrane potential (AID 720635); settings: HepG2 mitochondrial membrane potential, Mito-MPS dye ratio
Summary of the method: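 HepG2 cells (2,000/well) attached overnight at 37C, then took compound for 1 hr at 37C, 5% CO2. Mito-MPS dye was added for 30 min; fluorescence was read at 490/535 nm (monomers) and 540/590 nm (aggregates).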

[5] = qHTS assay to identify small molecule antagonists of the glucocorticoid receptor (GR) signaling pathway - cell viability counter screen (AID 720693); note: nearly all actives have a fitted effect of over 55% in size
Excerpt: (§1) National Center for Advancing Translational Sciences [NCATS]
(§2) NIH Chemical Genomics Center [NCGC]
(§3) U.S. Environmental Protection Agency [EPA]
(§4) National Institutes of Environmental Health Sciences [NIEHS]
(§5) National Toxicology Program [NTP]
(§6) U.S. Food and Drug Administration [FDA]
The Glucocorticoid receptor (GR) is one of the members of the nuclear receptor family of ligand-dependent transcription factors. GR plays a critical role in carbohydrate, protein and lipid metabolisms and programmed cell death. CellSensor GR-bla HeLa cell line (Invitrogen) contains a beta-lactamase reporter gene under the control of the glucocorticoid response element stably integrated into HeLa cells, a cervical cancer cell line that expresses glucocorticoid receptor. The activation of the reporter gene under culture conditions can be detected by fluorescence intensity. This cell line has been used to screen the Tox21 10K compound library and to identify the compounds that inhibit the GR signaling. The cytotoxicity of the Tox21 compound library against the GR-bla HeLa cell line was tested in parallel by measuring the cell viability using CellTiter-Glo assay in the same wells.
Tox21 Assay Protocol Summary:
The GR-bla HeLa cells were dispensed at 1500 cells/5 ul/well in 1536-well black wall/clear bottom plates using a Multidrop Combi (ThermoFisher Scientific, Waltham, MA) dispenser. After the assay plates were incubated at a 37 C/5% CO2 incubator for 4 hours, 23 nL of compounds dissolved in DMSO, positive controls or DMSO only was transferred to the assay plate by a pintool station (Kalypsys, San Diego, CA), followed by addition of 1 uL of dexamethasone (5 nM, final concentration in the well). The plates were incubated at 37 C for 18 hours. After 1 uL of LiveBLAzerTM B/G FRET substrate was added using a Flying Reagent Dispenser (Aurora Discovery, San Diego, CA), the plates were incubated at room temperature (RT) for 2 hours, and fluorescence intensity was measured by an Envision plate reader (PerkinElmer, Shelton, CT). […] The luminescence was measured using a ViewLux (Perkin Elmer) plate reader.

[6] = qHTS assay to identify small molecule antagonists of the androgen receptor (AR) signaling pathway - cell viability counter screen (AID 743033; note: nearly all actives have a fitted effect of over 45% in size); settings: AR-bla HEK293 viability, CellTiter-Glo luminescence, 16 h
Excerpt: as §1, §2, §3, §4, §5, §6
Androgen receptor (AR), a nuclear hormone receptor, plays a critical role in AR-dependent prostate cancer and other androgen related diseases. Endocrine disrupting chemicals (EDCs) and their interactions with steroid hormone receptors like AR may cause disruption of normal endocrine function as well as interfere with metabolic homeostasis, reproduction, developmental and behavioral functions. […]
AR-bla cells were dispensed at 2,000 cells/5 uL of assay medium per well into black wall/clear-bottom 1536-well plates using a Multidrop Combi (ThermoFisher Scientific, Waltham, MA) dispenser. […] After 1 uL of LiveBLAzerTM B/G FRET substrate was added using a Bioraptr FRD, the plates were incubated at room temperature for 2 h and fluorescence intensity was measured by an Envision plate reader (PerkinElmer, Shelton, CT). For cell viability readout that measures cytotoxicity, 4 ul/well of CellTiter-Glo reagent was added into the assay plates using a Bioraptr FRD. After 30 min incubation at room temperature, the luminescence intensity in the plates was measured using a ViewLux (PerkinElmer) plate reader.

[7] = qHTS assay to identify small molecule antagonists of the androgen receptor (AR) signaling pathway using the MDA cell line - cell viability counter screen (AID 743041; note: nearly all actives have a fitted effect of over 45% in size); settings: MDA-kb2 viability, CellTiter-Fluor, 16 h; cells co-treated with R1881 androgen agonist
Summary of the method: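 MDA-kb2 AR-luc human breast carcinoma cells (MMTV-luciferase, AR/GR responsive) were treated with compounds plus R1881 agonist for 16 h at 37 °C. Viability was read as CellTiter-Fluor fluorescence in the same wells as the reporter assay.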

[8] = qHTS assay to identify small molecule antagonists of the thyroid receptor (TR) signaling pathway - cell viability counter screen (AID 743064); settings: GH3.TRE-Luc viability, CellTiter-Fluor, 24 h; note: nearly all actives have a fitted effect of over 50% in size
Summary of the method: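 GH3.TRE-Luc rat pituitary cells carrying a TRE-luciferase reporter were treated with compound plus 1 nM T3 (final) for 23.5 h at 37 °C. Viability was then read in the same wells by CellTiter-Fluor fluorescence after a further 30 min.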

[9] = qHTS assay to identify small molecule antagonists of the estrogen receptor alpha (ER-alpha) signaling pathway using the BG1 cell line - cell viability counter screen (AID 743081);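 note: compound given together with 17beta-estradiol as the ER stimulus; nearly all actives have a fitted effect of over 45% in size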
[10] = molecular target: Aromatase (Homo sapiens) (UniProt P11511); experiment: qHTS assay to identify aromatase inhibitors (AID 743083); note: nearly all actives have a fitted effect of over 55% in size
[11] = qHTS assay to identify aromatase inhibitors - cell viability counter screen (AID 743084);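 note: cells stimulated with testosterone during compound exposure; nearly all actives have a fitted effect of over 55% in size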
[12] = qHTS assay to identify small molecule that activate the aryl hydrocarbon receptor (AhR) signaling pathway - cell viability counter screen (AID 743086); settings: HepG2-AhR-luc viability, CellTiter-Fluor, 24 h; note: nearly all actives have a fitted effect of over 45% in size
Summary of the method: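 HepG2-AhR-luc (HG2L7.5c1) cells, 4000/well, were preincubated 5 h at 37C, exposed to compound in qHTS format for 24 hr at 37C, then given CellTiter-Fluor for 30 min; viability was read as fluorescence in the reporter wells.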

[13] = qHTS assay to identify small molecule antagonists of the peroxisome proliferator-activated receptor gamma (PPARg) signaling pathway - cell viability counter screen (AID 743194); note: nearly all actives have a fitted effect of over 55% in size
Summary of the method: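 PPARg-UAS-bla HEK293H cells were plated, rested 5 h at 37 C, then treated with compounds plus rosiglitazone (50 nM final) for 17 h at 37 C; viability was then read by CellTiter-Glo luminescence after 30 min at room temperature.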

[14] = qHTS assay for small molecule agonists of the antioxidant response element (ARE) signaling pathway - cell viability counter screen (AID 743203; calls by dose curve; note: nearly all actives have a fitted effect of over 55% in size); settings: ARE-bla HepG2 viability, CellTiter-Glo luminescence, 16 h
Summary of the method: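 Compounds in DMSO were pinned onto ARE-bla HepG2 cells plated 5 hrs earlier at 2,000 cells/well. Sixteen hours later at 37C/5% CO2, CellTiter-Glo was added and luminescence measured after 30 min at room temperature.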

[15] = qHTS assay for small molecule activators of the heat shock response signaling pathway - cell viability counter screen (AID 743209); settings: HSE-bla HeLa viability, CellTiter-Glo luminescence, 5 h; note: nearly all actives have a fitted effect of over 50% in size
Summary of the method: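 Counter screen for cytotoxicity in HeLa HSE-bla reporter cells. Treatment was 5 h at 37 C; viability was detected by luminescent ATP assay (CellTiter-Glo) in the same wells as the beta-lactamase read.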

[16] = qHTS assay to identify small molecule agonists of the peroxisome proliferator-activated receptor delta (PPARd) signaling pathway - cell viability counter screen (AID 743211); note: nearly all actives have a fitted effect of over 55% in size
Summary of the method: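 PPARd-bla HEK293H cells (UAS-beta-lactamase reporter) were treated with compounds for 17 h at 37 C. Viability was then read in the same wells by CellTiter-Glo luminescence after 30 min at room temperature.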

Measured: Potency
Potency is the fitted concentration of half-maximal effect.

N#CSc1ccc([N+](=O)[O-])cc1[N+](=O)[O-]
active: [1] 27.3 µM | [2] 61.1 µM | [3] 61.1 µM | [4] 13.7 µM | [5] 54.9 µM | [6] 19.5 µM | [7] 61.1 µM | [8] 13.7 µM | [9] 68.6 µM | [10] 27.3 µM | [11] 21.7 µM | [12] 27.3 µM | [13] 13.8 µM | [14] 13.7 µM | [15] 19.5 µM | [16] 17.4 µM
